From ChEMBL document CHEMBL1138434, “Reversal of fluconazole resistance in multidrug efflux-resistant fungi by the Dysidea arenaria sponge sterol 9alpha,11alpha-epoxycholest-7-ene-3beta,5alpha,6alpha,19-tetrol 6-acetate” (J Nat Prod, 2003)

Columns and labels:
Saccharomyces cerevisiae [1] = settings: DSY 415, 30 uM
Saccharomyces cerevisiae [2] = settings: DSY 426, 30 uM
Saccharomyces cerevisiae [3] = settings: DSY 390, 30 uM
Saccharomyces cerevisiae [4] = settings: DSY 416, 30 uM
Saccharomyces cerevisiae [5] = settings: DSY 417, 30 uM

Measured: MIC

CC(=O)O[C@H]1C=C2[C@@H]3CC[C@H]([C@H](C)CCCC(C)C)[C@@]3(C)C[C@@H]3O[C@@]23[C@@]2(CO)CC[C@H](O)C[C@]12O
inactive: all assays above

Calls of active or inactive are those of the source.
